Data as given in patent publication US7713937B2, “Synthetic peptide amides and dimeric forms thereof” (Cara Therapeutics, Inc., priority 2006, dated 2010).

Protein sequences, listed by entry. Tags and fused reporters are not part of them. Lines headed by an entry give the natural chain unless they say otherwise; changes in a name come on top.
UniProt P33534: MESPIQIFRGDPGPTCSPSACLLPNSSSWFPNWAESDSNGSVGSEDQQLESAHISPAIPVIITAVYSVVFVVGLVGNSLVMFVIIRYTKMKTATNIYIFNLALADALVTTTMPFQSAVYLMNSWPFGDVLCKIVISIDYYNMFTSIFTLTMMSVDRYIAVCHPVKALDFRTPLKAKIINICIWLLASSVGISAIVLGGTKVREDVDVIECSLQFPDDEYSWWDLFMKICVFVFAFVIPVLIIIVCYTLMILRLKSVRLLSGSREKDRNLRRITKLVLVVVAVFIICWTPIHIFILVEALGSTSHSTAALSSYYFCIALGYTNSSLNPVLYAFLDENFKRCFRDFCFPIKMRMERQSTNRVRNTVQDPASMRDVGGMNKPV
UniProt P41145: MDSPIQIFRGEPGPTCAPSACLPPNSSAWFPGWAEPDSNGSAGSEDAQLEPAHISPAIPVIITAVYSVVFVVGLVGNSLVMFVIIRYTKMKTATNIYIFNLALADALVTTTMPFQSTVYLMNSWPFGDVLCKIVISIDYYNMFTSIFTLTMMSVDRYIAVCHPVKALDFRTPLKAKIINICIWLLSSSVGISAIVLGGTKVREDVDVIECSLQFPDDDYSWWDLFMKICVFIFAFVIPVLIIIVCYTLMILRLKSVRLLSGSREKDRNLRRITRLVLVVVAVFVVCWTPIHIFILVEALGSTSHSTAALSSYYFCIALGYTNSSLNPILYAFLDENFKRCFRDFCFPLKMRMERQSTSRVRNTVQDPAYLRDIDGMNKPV

Legend:
[1] = target: mouse kappa opioid receptor (mKOR) (Mus musculus, UniProt P33534); assay: Inhibition of forskolin-stimulated cAMP production in R1.G1 cells; format: cell-based; settings: read-out: mKOR EC50
[2] = target: human kappa opioid receptor (hKOR) (Homo sapiens, UniProt P41145); settings: read-out: hKOR EC50; transfected HEK-293 cells, luciferase reporter

Compound	EC50 [1] [nM]	EC50 [2] [nM]
CC(C)C[C@@H](NC(=O)[C@@H](Cc1ccccc1)NC(=O)[C@H](N)Cc1ccccc1)C(=O)N[C@H](CCCCN)C(=O)N1CCC(N2C(=O)Cc3ccccc32)CC1	0.0485	0.005
CC(C)C[C@@H](NC(=O)[C@@H](Cc1ccccc1)NC(=O)[C@H](N)Cc1ccccc1)C(=O)N[C@H](CCCCN)C(=O)N1CCC(n2c(=O)[nH]c3cc(Cl)ccc32)CC1 [Compound (28), D-Phe-D-Phe-D-Leu-D-Lys-[5-chloro-1-(piperidin-4-yl)-1H-benzo[d]imidazol-2(3)H-one amide]]	0.0582	0.0083
CC(C)C[C@@H](NC(=O)[C@@H](Cc1ccccc1)NC(=O)[C@H](N)Cc1ccccc1)C(=O)N[C@H](CCCCN)C(=O)N1CCC(n2cc(-c3ccccc3)[nH]c2=O)CC1 [Compound (30)]	–	0.0116
CC(C)C[C@@H](NC(=O)[C@@H](Cc1ccccc1)NC(=O)[C@H](N)Cc1ccccc1)C(=O)N[C@H](CCCCN)C(=O)N1CCC(n2c(=O)[nH]c3ccccc32)CC1 [Compound (36), D-Phe-D-Phe-D-Leu-D-Lys-[1-(piperidin-4-yl)-1H-benzo[d]imidazol-2(3H)-one amide]]	0.0234	0.0052
